Target: T1, norepinephrine uptake (Rattus norvegicus, UniProt Q9WTR4)
T1 construct: Crude synaptosomal preparations were isolated after differential centrifugation; from tissue; host or cells: rat cerebral cortex, crude synaptosomes
Test: Synaptosomal uptake of ³H-norepinephrine in rat cerebral cortex synaptosomes
Format: biochemical, Male Sprague-Dawley rats
Conditions: Cortical synaptosomes, 50 nM ³H-NE, 37°C for 5 minutes; IC₅₀ by linear regression analysis

Sequences of proteins named here, by UniProt entry; tags and fusion partners are left off. Residues count along the entry.
UniProt Q9WTR4, 1-597: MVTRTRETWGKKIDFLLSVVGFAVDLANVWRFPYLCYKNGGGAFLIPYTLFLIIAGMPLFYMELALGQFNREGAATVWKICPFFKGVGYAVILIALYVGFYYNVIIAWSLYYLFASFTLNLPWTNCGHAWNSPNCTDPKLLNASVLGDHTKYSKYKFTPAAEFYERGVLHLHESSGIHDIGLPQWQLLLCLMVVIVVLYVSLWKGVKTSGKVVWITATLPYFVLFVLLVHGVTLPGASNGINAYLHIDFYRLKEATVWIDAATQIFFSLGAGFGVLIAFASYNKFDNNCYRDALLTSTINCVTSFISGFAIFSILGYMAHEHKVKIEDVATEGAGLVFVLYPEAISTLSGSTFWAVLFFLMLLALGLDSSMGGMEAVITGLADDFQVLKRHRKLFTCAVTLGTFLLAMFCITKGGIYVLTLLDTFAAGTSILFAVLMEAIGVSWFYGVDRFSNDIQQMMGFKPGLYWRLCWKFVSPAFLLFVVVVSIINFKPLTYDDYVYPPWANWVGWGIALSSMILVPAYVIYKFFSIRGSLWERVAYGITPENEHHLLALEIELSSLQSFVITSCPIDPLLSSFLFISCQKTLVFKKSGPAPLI

IC50: 7 nM
SMILES: CNCCC(Oc1ccccc1OC)c1ccccc1 (stereo not shown) [CH₃O, N-methyl-3-phenyl-3-(2-methoxyphenoxy)propylamine]

Source: EP0591581B1, “N-Alkyl-3-phenyl-3-(2-alkylthiophenoxy)propylamines” (ELI LILLY AND COMPANY, priority 1992, dated 1994)
